The values below are quoted from earlier work in patent US7902185B2, “Treatment of neurodegenerative diseases using proteasome modulators” (ALS Therapy Development Foundation, Inc., priority 2002, dated 2011).

For the data set, the system named is patients with ALS. Conditions: human, in vivo; cited from earlier work.

Regarding `Nc1nc2ccc(OC(F)(F)F)cc2s1` [Riluzole], the “survival of ALS patients” value is on record as “appears to extend the life of at least some patients”.
